Measured values from ChEMBL document CHEMBL1132775, “N1-(Benzenesulfonyl)tryptamines as novel 5-HT6 antagonists” (Bioorg Med Chem Lett, 2000).

Sequences of proteins named here, by UniProt entry; tags and fusion partners are left off.
UniProt P50406, whole entry: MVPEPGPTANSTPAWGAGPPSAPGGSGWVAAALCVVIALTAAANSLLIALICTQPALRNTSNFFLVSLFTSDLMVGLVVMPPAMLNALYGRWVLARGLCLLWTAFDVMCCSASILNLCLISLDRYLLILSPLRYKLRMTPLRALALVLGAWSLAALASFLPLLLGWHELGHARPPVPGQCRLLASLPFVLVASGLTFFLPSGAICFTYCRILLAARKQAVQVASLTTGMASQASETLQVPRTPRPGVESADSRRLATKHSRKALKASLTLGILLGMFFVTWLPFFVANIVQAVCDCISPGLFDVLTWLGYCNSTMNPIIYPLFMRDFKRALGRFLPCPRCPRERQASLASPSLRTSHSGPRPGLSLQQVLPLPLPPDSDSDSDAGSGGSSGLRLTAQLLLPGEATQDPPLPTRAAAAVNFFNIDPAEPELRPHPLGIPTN

Target: 5-hydroxytryptamine receptor 6 (Homo sapiens, UniProt P50406)
Experiment: Binding affinity against human 5-hydroxytryptamine 6 receptor stably transfected to HEK 293 human embryonic kidney cells using [3H]-lysergic acid diethylamide as radioligand
Format: cell-based, HEK293

COc1ccc2[nH]cc(CCN(C)C)c2c1 [MEBUFOTENIN]
Ki: 16 nM
